Patent publication US12145964B2, “Thiophosphorodichloridate reagents for chemoselective histidine bioconjugation” (dated 2024)

The chains behind the UniProt entries cited, without tags or fusion partners. Residues count along the entry.
UniProt P00698, 19-147 limits assumed: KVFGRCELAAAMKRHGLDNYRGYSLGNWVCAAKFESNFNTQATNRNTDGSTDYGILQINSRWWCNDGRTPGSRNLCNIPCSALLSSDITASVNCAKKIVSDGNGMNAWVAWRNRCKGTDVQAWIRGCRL
UniProt P68082, whole entry, looked up: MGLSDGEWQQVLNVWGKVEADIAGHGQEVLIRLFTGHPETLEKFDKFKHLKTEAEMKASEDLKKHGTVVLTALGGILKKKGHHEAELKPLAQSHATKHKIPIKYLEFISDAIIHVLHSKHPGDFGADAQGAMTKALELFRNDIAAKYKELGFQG
UniProt P61823, 27-150 limits assumed: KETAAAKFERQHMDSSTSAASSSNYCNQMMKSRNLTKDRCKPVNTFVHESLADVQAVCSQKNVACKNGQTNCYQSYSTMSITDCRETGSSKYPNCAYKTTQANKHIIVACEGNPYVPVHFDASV

Key:
[1] = Stability of TPAC-labelled Fmoc-His-OH (hydrolysis, HPLC)
[2] = Reaction between phosphorus electrophiles and Fmoc-His-OH; details: for Labeling of Fmoc-His-OH: buffered aqueous solution, 0.5 mM Fmoc-His-OH, 5 mM electrophile, 25 mM HEPES pH 8.5, 20% MeCN, 1h; for Hydrolysis of the resulting histidine product: prolonged incubation at neutral pH
His-tag GFP = assay: TPAC labelling of His-tag GFP (blots, LC-MS); details: GFP with N-terminal 10×His tag
calmodulin = calmodulin (Sus scrofa, UniProt F2Z5G3); assay: Protein labelling with TPAC, site selectivity
lysozyme = lysozyme (Gallus gallus, UniProt P00698); assay: Protein labelling with TPAC, site selectivity; details: pH 8.5
myoglobin = myoglobin (Equus caballus, UniProt P68082); assay: Protein labelling with TPAC, site selectivity
ribonuclease A [3] = target: T1, ribonuclease A (Bos taurus, UniProt P61823); assay: Activity of ribonuclease A after TPAC treatment
[4] = TPAC labeling in HeLa lysates, in-gel fluorescence
ribonuclease A [5] = target: T1, ribonuclease A; assay: Protein labelling with TPAC, intact mass spectrometry; details: pH 8.5, 20 μM protein, 2 mM TPAC, 1 h
[6] = Reaction of TPAC with mixture of Fmoc-protected amino acids; details: competing Fmoc-protected amino acids, 3 mM TPAC, pH 8.5

Question: With `C#CCOP(O)(=S)n1cnc(C[C@H](NC(=O)OCC2c3ccccc3-c3ccccc32)C(=O)O)c1` (some centres unmarked) as the compound, how does the Hydrolysis ratio ([1]; Dithiothreitol (5 mM), 65 °C, 0.5 h, in PBS) read?
Answer: 1%

Question: What about the Hydrolysis ratio ([1]; Formic acid (1M), 25 °C, 1 h, in water) of the same compound?
Answer: 1%

Question: And the Hydrolysis ratio ([1]; Formic acid (1M), 25 °C, 14 h, in water)?
Answer: 15%

Question: What about the Hydrolysis ratio ([1]; HCl (0.2M), 25 °C, 1 h, in water) of the same compound?
Answer: <1%

Question: What about the Hydrolysis ratio ([1]; HCl (0.2M), 25 °C, 14 h, in water) of the same compound?
Answer: 20

Question: And the Hydrolysis ratio ([1]; Iodoacetamide (10 mM), 37 °C, 1 h, in PBS)?
Answer: 2%

Question: And the Hydrolysis ratio ([1]; NH3 · H2O (1M), 25 °C, 1 h, in water)?
Answer: <1%

Question: And the Hydrolysis ratio ([1]; NH3 · H2O (1M), 25 °C, 14 h, in water)?
Answer: <1%

Question: What about the Hydrolysis ratio ([1]; TCEP (5 mM), 65 °C, 0.5 h, in PBS) of the same compound?
Answer: <1%

Question: Which “Labeling of Fmoc-His-OH” value [2] does the source give for `C#CC(C)OP(=S)(Cl)Cl` (racemic) here?
Answer: comparable reactivity

Question: With `C#CCOP(=S)(Cl)OC` (centres unmarked) as the compound, how does the “Labeling of Fmoc-His-OH” value [2] read?
Answer: appreciable labeling

Question: And the “Hydrolysis of the resulting histidine product” value [2]?
Answer: significant hydrolysis

Question: For `C#CCOP(=S)(Cl)Cl`, which “Site of labelling on His-tag GFP” value (His-tag GFP) is on record?
Answer: selectively reacts with histidine residues on the His-tag

Question: What about the “Histidine selectivity of labelling” value (calmodulin) of the same compound?
Answer: excellent histidine selectivity

Question: What about the Side-reactivity towards lysine (lysozyme) of the same compound?
Answer: Modest side-reactivity towards lysine

Question: What about the “Histidine selectivity of labelling” value (myoglobin) of the same compound?
Answer: excellent histidine selectivity

Question: What about the “Loss of activity of ribonuclease A after TPAC treatment” value (ribonuclease A [3]) of the same compound?
Answer: negligible loss of activity

Question: And the “Labeling in lysates; effect of pretreatment with electrophiles blocking cysteine, lysine or serine” value [4]?
Answer: do not affect the observed TPAC signal

Question: And the Doubly-modified protein (ribonuclease A [5])?
Answer: 11%

Question: What about the Singly-modified protein (ribonuclease A [5]) of the same compound?
Answer: ca. 45%

Question: What about the “Hydrolysis of the reagent itself” value ([2]; aqueous buffer) of the same compound?
Answer: fast hydrolysis

Question: What about the “Labeling of Fmoc-His-OH” value [2] of the same compound?
Answer: higher conversion

Question: What about the Yield of bioconjugate ([2]; pH 8.5, within twenty minutes) of the same compound?
Answer: 60%

Question: And the “Hydrolysis of the resulting histidine product” value [2]?
Answer: resistant to hydrolysis

Question: And the “Reactivity on other nucleophilic amino acids” value [6]?
Answer: negligible reactivity

Question: With `[N-]=[N+]=NCCOP(=S)(Cl)Cl` as the compound, how does the “Labeling of Fmoc-His-OH” value [2] read?
Answer: comparable reactivity
